Like-named read-outs stand apart in the source and are kept apart here.

For series [1] the following is noted: Older Patients (>65 years), n = 24, i.v. 15,000 IU/m^2, AVG, cited from earlier work.
For series [2] the following is noted: Younger Patients (<65 years), n = 12, i.v. 15,000 IU/m^2, AVG. The procedure: For blood collection, 12 patients younger than 65 years were eligible. […] Samples were centrifuged at 1882× g for 10 min at room temperature. Plasma was carefully transferred to a new Eppendorf tube and stored at −20 °C until analysis.
Plasma samples were prepared for analysis by protein precipitation and phospholipid removal using Ostro™ 96-well plates (Waters Corp., Milford, MA, USA). A 200-µL plasma sample was added to the 2-mL well, followed by 600 µL acetonitrile with 0.1% formic acid and internal standard epirubicin at a final concentration of 0.05 µg/mL. The mixture was then aspirated three times with a pipette and pushed through the Ostro^TM sorbent at 60 psi N2 for 5 min. The extract was finally filtered through a 0.2-µm regenerated cellulose filter and analyzed by liquid chromatography coupled to tandem mass spectrometry (LC-MS/MS).
The flow rate was 0.3 mL/min.
We determined the following pharmacokinetic parameters: the area under the plasma concentration-time curve (AUC), which was calculated using the trapezoid method from time 0 to 40 min after single bolus intravenous injection (AUC 0 → 40), and plasma clearance (Cl) was calculated as follows:(1) Cl=dose/AUC 0→40
The elimination rate constant kel was determined from the slope of ln (concentration) versus the time curve, and half-life was calculated using the following:(2) t ½=ln2/kel and volume of distribution (Vd) (3) Vd=t ½/ln2×Cl

Regarding bleomycin, the t1/2 in series [1] (SEM 1.79, 95% CI 25.69-33.10) was 29.4 min; in series [2] (40 min post-injection, SEM 2.10, 95% CI 20.22-29.46), 24.84 min. The distribution volume (Vd) (in general, a proportionality between amount in the body and measured concentration, not a real space) is recorded as 15.9 L in series [1] (SEM 2.65, 95% CI 10.42-21.37) and 32.17 L in series [2] (t½/ln2×Cl, SEM 6.24, 95% CI 18.44-45.90). Moreover, the “AUC 0 → 40” value in series [1] (SEM 7.899, 95% CI 79.55-92.49) was 86.02 µg·min/mL; in series [2] (trapezoid method, SEM 7.90, 95% CI 33.44-68.22), 50.83 µg·min/mL. The “Plasma Clearance Cl” value in series [1] (SEM 15.83, 95% CI 278.6-344.1) is 311.3 mL/min; in series [2] (dose/AUC 0→40, SEM 261.0, 95% CI 424.6-1574.0), 999.1 mL/min.
